# According to patent US8383136B2, “Micelle encapsulation of therapeutic agents” (Wisconsin Alumni Research Foundation, priority 2009, dated 2013):
# What was measured:
# [1] = Drug solubilization by PEG-b-PLA micelles (drug level in water, reverse phase HPLC); settings: SDM or MDM, PEG-b-PLA (4.2K:1.9K) micelles
# [2] = Physical stability / drug loss from PEG-b-PLA micelles after 24 hours (turbidity, HPLC); assay type: physicochemical; settings: analyte 17-AAG
# Experimental: Turbidity measurements were used to evaluate the physical stability of drug-loaded PEG-b-PLA micelles. A CARY 50 BIO UV-Visible spectrophotometer equipped with dip probe was used to measure turbidity. Micellar solutions were diluted six times, for a final concentration of PEG-b-PLA of 5 mg/mL, with DD H2O and filtered through 0.45 μm filter. […] Each measurement was performed in triplicate.
"drug level in water ([1]; analyte etoposide, listed as ETO)",Structure (SMILES),drug level in water ([1]; analyte 17-AAG),% w/w drug(s) left @ 24 hr [2]
–,"C=CCNC1=C2C[C@@H](C)C[C@H](OC)[C@H](O)[C@@H](C)/C=C(\C)[C@H](OC(N)=O)[C@@H](OC)/C=C\C=C(/C)C(=O)NC(=CC1=O)C2=O [17-AAG, 17-allylamino-17-demethoxygeldanamycin]",4210 µg/mL,98.6 ± 2.4 % w/w
3170 µg/mL,COc1cc([C@@H]2c3cc4c(cc3[C@@H](O[C@@H]3O[C@@H]5CO[C@@H](C)O[C@H]5[C@H](O)[C@H]3O)[C@H]3COC(=O)[C@H]23)OCO4)cc(OC)c1O [Etoposide],–,–
